Values quoted from earlier work in US20240041861A1, “COMPOSITIONS AND METHODS FOR TREATMENT AND PROPHYLAXIS OF VIRAL INFECTIONS” (priority 2020, published 2024).

What was measured:
[1] = test system: human subjects; details: in vivo
[2] = test system: rats; details: rat, in vivo, 1500 mg/kg/day

Bromelain
changes in blood coagulation parameters [1]: without significant changes | carcinogenic or teratogenic effects [2]: no carcinogenic or teratogenic effects
